Source: article PMC11369174 (Molecular Systems Biology, 2024)

Molecular target: Kelch-like ECH-associated protein (KEAP1) KELCH domain (human)
Test: fluorescence polarisation; displacement: unlabelled peptide titrated onto a complex of FITC-labelled peptide (10 nM) and protein domain (1-2x KD); 50 mM sodium phosphate buffer pH 7.4 (CASK: plus 100 mM NaCl); KD calculated from IC50; technical triplets
Details: both partners purified

Kd: 900 nM
Binder: SKEVDPSTGELQSLY [SQSTM1_(343-356) wild-type peptide]
